Test results: patent publication US11707440B2 (priority 2017, dated 2023)

What was measured:
[1] = system: female Sprague-Dawley rats, PCG/RSC of the brain; assay: 14-day repeated dose neurotoxicity study, intranasal instillation; details: 1 mg/kg SC
[2] = system: female Sprague-Dawley rats, PCG/RSC of the brain; assay: Single dose neurotoxicity study, intranasal instillation

## (+)MK-801 maleate [reference compound]
[1]
  Animals with lesion severity scored marked: 7 out of 12 animals
[2]; single dose study, 1 mg/kg SC
  Animals with lesion severity scored marked: 25 out of 30 females
[2]; single subcutaneous dose 1 mg/kg
  Body weight loss within the first 48 hours after treatment: 13-14%
[2]; single subcutaneous dose 1 mg/kg, both studies
  Grade of most neuronal necrosis lesions: grade 3 or 4
[2]; single subcutaneous dose 1 mg/kg, single dose and repeated dose study
  Mortality: No mortality
[2]; single subcutaneous dose 1 mg/kg, single dose and repeated dose study, 1 mg/kg
  Neuronal necrosis in the PCG/RSC: neuronal necrosis was observed; also recorded: all treated animals; also recorded: presence
[2]; single subcutaneous dose 1 mg/kg, single dose and repeated dose study, listed as (+)MK801 maleate, 1 mg/kg
  Neuronal necrosis in the PCG/RSC: all rats
[2]; single subcutaneous dose 1 mg/kg, single dose and repeated dose study, listed as (+)MK-801, 1 mg/kg
  Neuronal necrosis in the PCG/RSC: presence

“Also recorded” adds a separate entry of the source.
